The assay deals with Poly [ADP-ribose] polymerase 1 (Homo sapiens, UniProt P09874).

Chains of the proteins cited; added tags and fusions are not shown.
UniProt P09874, whole entry: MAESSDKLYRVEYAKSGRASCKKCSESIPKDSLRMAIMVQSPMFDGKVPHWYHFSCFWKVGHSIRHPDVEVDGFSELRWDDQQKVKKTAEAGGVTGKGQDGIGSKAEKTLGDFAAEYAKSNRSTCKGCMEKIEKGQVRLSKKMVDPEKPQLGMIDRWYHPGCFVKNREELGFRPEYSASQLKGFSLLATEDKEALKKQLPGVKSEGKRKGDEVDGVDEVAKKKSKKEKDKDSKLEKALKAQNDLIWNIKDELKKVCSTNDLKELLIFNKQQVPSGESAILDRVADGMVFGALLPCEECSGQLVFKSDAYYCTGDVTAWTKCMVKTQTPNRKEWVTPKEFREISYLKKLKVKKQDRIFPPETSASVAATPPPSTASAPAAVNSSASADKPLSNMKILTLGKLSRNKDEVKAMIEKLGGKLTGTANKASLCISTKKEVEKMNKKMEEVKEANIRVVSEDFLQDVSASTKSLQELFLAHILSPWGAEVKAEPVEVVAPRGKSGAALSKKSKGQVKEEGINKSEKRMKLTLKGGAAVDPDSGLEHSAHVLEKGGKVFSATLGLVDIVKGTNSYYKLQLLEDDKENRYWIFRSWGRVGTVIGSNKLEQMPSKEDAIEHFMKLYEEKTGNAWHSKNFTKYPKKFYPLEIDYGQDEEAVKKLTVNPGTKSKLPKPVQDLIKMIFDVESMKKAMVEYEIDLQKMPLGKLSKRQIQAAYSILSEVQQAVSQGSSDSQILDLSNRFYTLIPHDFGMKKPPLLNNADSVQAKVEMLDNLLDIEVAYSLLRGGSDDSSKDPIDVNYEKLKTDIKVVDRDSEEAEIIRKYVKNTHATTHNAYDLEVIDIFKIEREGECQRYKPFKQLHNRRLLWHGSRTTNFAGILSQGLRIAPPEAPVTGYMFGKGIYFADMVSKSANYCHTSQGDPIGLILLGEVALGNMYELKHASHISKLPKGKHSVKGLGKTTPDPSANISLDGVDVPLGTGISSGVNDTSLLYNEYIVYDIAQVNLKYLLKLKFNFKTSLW

Compound `COc1cccc(-c2nc3c(C(N)=O)cccc3[nH]2)c1` displayed a Ki of 6 nM.

One may read the Ki as a measure of affinity in units of concentration, obtained from inhibition or displacement. Low values mean tighter binding, high ones weaker binding.

Values taken from ChEMBL document CHEMBL1132951, “Resistance-modifying agents. 9. Synthesis and biological properties of benzimidazole inhibitors of the DNA repair enzyme poly(ADP-ribose) polymerase” (J Med Chem, 2000).
